Chains of the proteins cited; added tags and fusions are not shown. A line that says so, or that is headed by a name, gives the form on record, which may keep a tag or linker.
UniProt P15692, other isoform, or with tags, fused parts or gaps: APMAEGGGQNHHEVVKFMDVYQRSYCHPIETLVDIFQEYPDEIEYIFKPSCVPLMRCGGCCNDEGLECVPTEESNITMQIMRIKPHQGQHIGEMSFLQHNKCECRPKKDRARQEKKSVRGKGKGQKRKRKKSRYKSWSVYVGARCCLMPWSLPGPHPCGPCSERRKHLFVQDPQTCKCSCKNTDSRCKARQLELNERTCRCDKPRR

According to patent US20230080842A1 (WUHAN YZY BIOPHARMA, published 2023):

Target: T1, Human VEGFA (human, UniProt P15692 207-395)
T1 construct: also called VEGF antigen; not shown: His tag
Assay: ELISA, plate coated with His-tagged antigen

EC50: 0.03 nM
B1: G631mAb (antibody, human IgG1, kappa, V domains shown)
VH: EVQLVESGGGLVQPGGSLRLSCAASGFTISDYWIHWVRQAPGKGLEWVAGITPAGGYTYYADSVKGRFTISADTSKNTAYLQMNSLRAEDTAVYYCARFVFFLPYAMDYWGQGTLVTVSS
VL: DIQMTQSPSSLSASVGDRVTITCRASQDVSTAVAWYQQKPGKAPKLLIYSASFLYSGVPSRFSGSGSGTDFTLTISSLQPEDFATYYCQQGYGNPFTFGQGTKVEIKR
notes: anti-VEGF monoclonal antibody, human IgG1 constant domains, kappa
